# Test results: PubChem BioAssay (Tox21)
# Protein sequences, listed by entry. Tags and fused reporters are not part of them.
# UniProt P33261, whole entry, looked up: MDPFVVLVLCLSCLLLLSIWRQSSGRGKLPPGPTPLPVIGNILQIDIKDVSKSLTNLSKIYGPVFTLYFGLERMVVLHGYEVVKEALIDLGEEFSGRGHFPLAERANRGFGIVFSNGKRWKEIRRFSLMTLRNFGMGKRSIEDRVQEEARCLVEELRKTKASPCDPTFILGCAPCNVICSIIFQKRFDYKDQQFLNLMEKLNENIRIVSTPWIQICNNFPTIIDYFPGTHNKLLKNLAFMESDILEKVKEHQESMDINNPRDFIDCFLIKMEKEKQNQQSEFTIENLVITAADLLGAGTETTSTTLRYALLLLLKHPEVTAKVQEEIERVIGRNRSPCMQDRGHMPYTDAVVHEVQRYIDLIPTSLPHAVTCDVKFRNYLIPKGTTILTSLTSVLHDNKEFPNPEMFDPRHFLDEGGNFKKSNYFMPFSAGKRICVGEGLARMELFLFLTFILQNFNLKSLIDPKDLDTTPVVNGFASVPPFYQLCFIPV
# This is a selection; strong and weak results do not stand in their true shares. Records with an inconclusive call do not appear. More than one record can exist for a structure, and the calls need not agree. Active and inactive are the calls of the source. Calls come from the whole dose curve; as a rule, active = well fitted inhibition curve with a large enough effect in the repeat runs; inconclusive = weak or mixed curves; inactive = no such curve, though single readings can be large or run the other way.
# Target: Cytochrome P450 2C19 (Homo sapiens) (UniProt P33261)
# Assay: Cytochrome P450 Family 2 Subfamily C Member 19 (CYP2C19) small molecule antagonists: luciferase reporter qHTS assay (AID 1671197); note: nearly all actives have a fitted effect of over 65% in size
# Settings: P450-Glo CYP2C19 enzyme, luciferin luminescence, 1 h; series mostly up to 115 µM; activity change, negative = inhibition: at the top concentration
# Text: National Center for Advancing Translational Sciences [NCATS]
# U.S. Environmental Protection Agency [EPA]
# National Institutes of Environmental Health Sciences [NIEHS]
# National Toxicology Program [NTP]
# U.S. Food and Drug Administration [FDA]
# Cytochrome P450 (CYP) enzymes are membrane-bound hemeproteins that play a key role in metabolism of drugs and xenobiotics. Evaluation of the effect of chemicals on CYP isozymes is useful to minimize the adverse drug reactions and toxicities in drug development process. Tox21 chemicals were tested for their effect on CYP enzyme activities by using P450-Glo (TM) screening systems (Promega Corporation, Madison, WI). These systems provide a luminescent method containing proluciferin substrates and are converted to luciferin products by CYP isozymes. The luciferin products formed are detected with a luciferin detection reagent, and the amount of light produced is proportional to CYP activity. P450-Glo (TM) CYP2C19 screening system (Catalog. No. V9880) was used to detect the compounds that interfere in CYP2C19 activity. The positive control compound used for CYP2C19 assay is ketoconazole (Sigma-Aldrich, St. Louis, MO).
# Tox21 Assay Protocol Summary:
# Two ul of enzyme-substrate mix was dispensed into medium binding white/solid 1536-well plates (Greiner Bio-One North America Inc., Monroe, NC) using a BioRaptr Flying Reagent Dispenser (FRD, Beckman Coulter, Brea, CA). Compounds dissolved in DMSO and positive control (ketoconazole) were transferred to the assay plates at 23 nl using a Pintool station (Wako, San Diego, CA). The assay plates were incubated at room temperature for 10 min. Then 2 ul of NADPH regeneration solution was added to each well of the assay plates using an FRD and incubated at 37C for 1 h. The reaction was stopped by adding 4 ul of detection reagent using an FRD and after 20 min incubation at room temperature the luminescence signal was measured using a ViewLux plate reader (Perkin Elmer, Shelton, CT). Data were expressed as relative luminescence units.
# % is set by controls: 0 for no effect and ±100 for the full control effect; potency is the fitted concentration of half-maximal effect.
Structure (SMILES),Potency,"activity change, negative = inhibition"
O=P(Cl)(Oc1ccccc1)Oc1ccccc1,active: 71 µM,–
CC(C)CCCCCCCOP(OCCCCCCCC(C)C)Oc1ccccc1,active: 79.6 µM,–
O=[N+]([O-])c1ccc([N+](=O)[O-])cc1,active: 5.03 µM,–
CN(C(=O)Cc1ccc(Cl)c(Cl)c1)[C@H]1CC[C@@]2(CCCO2)C[C@@H]1N1CCCC1,–,inactive: 13% [at 52.9 µM]
O=[P+](Oc1ccccc1)Oc1ccccc1,–,inactive: -8.66%
CN(C(=O)Cc1ccccc1)[C@H]1CC[C@@]2(CCCO2)C[C@@H]1N1CCCC1,–,inactive: 1.52% [at 52.9 µM]
CCOC(=O)Cl,–,inactive: -26.1%
O=[As]c1ccccc1 (centres undefined),active: 79.6 µM,–
Cc1cc([N+](=O)[O-])cc([N+](=O)[O-])c1O,active: 71 µM and inactive,–
CCOP(=S)(CC)Sc1ccccc1 (centres undefined),active: 1.26 µM,–
CCCCO[P+](=O)OCCCC,–,inactive: 1.19%
CCCCCCCCCCCCCC[P+](CCCCCC)(CCCCCC)CCCCCC,active: 20 µM,–
CCCCOP(OCCCC)OCCCC,active: 10 µM,–
O=P(Cl)(Cl)c1ccccc1,–,inactive: -11.8%
COP(=S)(Cl)OC,active: 28.5 µM,–
CCC(C)(OOC(C)(C)C)OOC(C)(C)C,–,inactive: -7.88% [at 23.6 µM]
COC(=O)Cl,–,inactive: 6.23%
CCCCC(CC)CO[P+](=O)OCC(CC)CCCC (centres undefined),active: 56.4 µM,–
Cc1cc([N+](=O)[O-])c(O)c([N+](=O)[O-])c1,–,inactive: 3.48%
